Results published in publication PMC6010140, “Design, synthesis and docking study of novel coumarin ligands as potential selective acetylcholinesterase inhibitors” (Journal of Enzyme Inhibition and Medicinal Chemistry, 2017).

Protein sequences, listed by entry. Tags and fused reporters are not part of them. Residues count along the entry.
UniProt O42275, 24-633: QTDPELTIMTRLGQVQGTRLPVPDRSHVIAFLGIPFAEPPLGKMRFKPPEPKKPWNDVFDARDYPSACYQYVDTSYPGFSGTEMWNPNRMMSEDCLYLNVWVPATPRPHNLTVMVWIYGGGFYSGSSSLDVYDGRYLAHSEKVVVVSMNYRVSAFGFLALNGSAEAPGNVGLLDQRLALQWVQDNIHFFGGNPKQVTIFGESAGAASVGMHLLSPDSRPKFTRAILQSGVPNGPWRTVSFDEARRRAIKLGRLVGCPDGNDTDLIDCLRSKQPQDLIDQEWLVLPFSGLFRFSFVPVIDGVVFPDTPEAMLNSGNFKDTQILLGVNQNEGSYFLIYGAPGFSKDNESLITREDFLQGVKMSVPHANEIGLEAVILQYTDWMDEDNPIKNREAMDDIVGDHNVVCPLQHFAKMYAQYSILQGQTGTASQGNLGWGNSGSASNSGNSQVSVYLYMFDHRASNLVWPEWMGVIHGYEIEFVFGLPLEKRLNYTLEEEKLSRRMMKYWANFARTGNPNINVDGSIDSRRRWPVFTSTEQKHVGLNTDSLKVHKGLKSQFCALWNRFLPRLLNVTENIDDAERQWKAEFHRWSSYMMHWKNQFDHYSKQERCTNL
UniProt P81908, whole entry: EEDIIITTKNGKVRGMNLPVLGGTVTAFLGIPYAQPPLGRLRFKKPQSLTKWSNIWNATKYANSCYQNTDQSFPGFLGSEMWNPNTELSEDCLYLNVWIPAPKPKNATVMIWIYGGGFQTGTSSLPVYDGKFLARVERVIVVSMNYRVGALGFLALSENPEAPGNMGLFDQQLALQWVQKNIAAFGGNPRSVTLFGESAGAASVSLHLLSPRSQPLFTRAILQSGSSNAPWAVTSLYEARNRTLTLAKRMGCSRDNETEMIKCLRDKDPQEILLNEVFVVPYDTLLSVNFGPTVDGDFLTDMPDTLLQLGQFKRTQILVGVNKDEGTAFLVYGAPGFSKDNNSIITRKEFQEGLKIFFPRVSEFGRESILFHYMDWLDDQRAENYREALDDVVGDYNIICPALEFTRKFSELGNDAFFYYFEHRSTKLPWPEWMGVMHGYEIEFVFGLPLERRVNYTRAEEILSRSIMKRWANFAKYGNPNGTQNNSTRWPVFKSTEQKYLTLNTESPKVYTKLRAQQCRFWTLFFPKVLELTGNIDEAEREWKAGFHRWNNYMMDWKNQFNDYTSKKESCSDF

Experiments:
[1] = target: electric eel acetylcholinesterase (AChE, Type-VI-S, EC 3.1.1.7) (Electrophorus electricus, UniProt O42275); assay: biochemical; conditions: for Selectivity index: IC50 (BuChE)/IC50 (AChE)
Protocol: (§1) The substrates of the reaction were acetylthiocholine iodide and butyrylthiocholine iodide. […] The reaction was initiated by the addition of 10 µL (7.1 mM) acetylthiocholine iodide (or 0.79 mM butyrylthiocholine iodide).

[2] = target: horse serum butyrylcholinesterase (BuChE, EC 3.1.1.8) (Equus caballus, UniProt P81908); assay: biochemical
Protocol: as §1

AChE = AChE (Electrophorus electricus, UniProt O42275); assay: biochemical
Protocol: The plots were assessed by a weighted least-squares analysis that assumed the variance of velocity (v) to be a constant percentage of v for the entire data set.

in vitro = conditions: rat, H4IIE hepatoma cells
[3] = read-out: AChE IC50, means ± SEM of three parallel measurements
[4] = read-out: BuChE IC50, means ± SEM of three parallel measurements

Molecule | Selectivity index [1] | IC50 [1] [nM] | IC50 [2] [µM] | other results
2-(Diisopropylamino)-N-(4-(2-oxo-2H-chromen-3-yl)thiazol-2-yl)acetamide [Compound 6e] | 19.66 | – | – | IC50 [1, 3]: 2290 ± 1 nM; IC50 [2, 4]: 45.02 ± 0.01 µM
CNCC(=O)Nc1nc(-c2cc3ccccc3oc2=O)cs1 [Compound 6a, 2-(Methylamino)-N-(4-(2-oxo-2H-chromen-3-yl)thiazol-2-yl)acetamide] | 51.58 | 2360 ± 3 | 121.72 ± 0.02 | –
CCCNCC(=O)Nc1nc(-c2cc3ccccc3oc2=O)cs1 [Compound 6b, N-(4-(2-oxo-2H-chromen-3-yl)thiazol-2-yl)-2-(propylamino)acetamide] | 88.05 | 2150 ± 2 | 189.3 ± 0.05 | –
CCN(CC)CC(=O)Nc1nc(-c2cc3ccccc3oc2=O)cs1 [Compound 6c, 2-(Diethylamino)-N-(4-(2-oxo-2H-chromen-3-yl)thiazol-2-yl)acetamide] | 4151.16 | 43 ± 2 | 178.5 ± 0.03 | AChE inhibition relative to PBI-1 ([1]; ratio of IC50 values): ~90 fold; AChE inhibition relative to PBI-2 ([1]; ratio of IC50 values): ~107 fold; AChE inhibition relative to galantamine ([1]; ratio of IC50 values): 56 fold; AChE inhibition relative to rivastigmine ([1]; ratio of IC50 values): 70 fold; AChE inhibition relative to tacrine ([1]; ratio of IC50 values): 4 fold; Ki (AChE): 31 nM; viability at 24 h, 0.07 µM (in vitro): 130 ± 5.1%; viability at 24 h, 0.15 µM (in vitro): 106 ± 2.4%; viability at 24 h, 0.3 µM (in vitro): 101 ± 0.9%; viability at 24 h, 0.6 µM (in vitro): 78 ± 7.3%; viability at 24 h, 1.25 µM (in vitro): 56 ± 5%; viability at 24 h, 2.5 µM (in vitro): 38 ± 4.1%
CCCCN(CCCC)CC(=O)Nc1nc(-c2cc3ccccc3oc2=O)cs1 [Compound 6d, 2-(Dibutylamino)-N-(4-(2-oxo-2H-chromen-3-yl)thiazol-2-yl)acetamide] | 105.44 | 1710 ± 2 | 180.3 ± 0.1 | –
O=C(CNC1CCCCC1)Nc1nc(-c2cc3ccccc3oc2=O)cs1 [Compound 6f, 2-(Cyclohexylamino)-N-(4-(2-oxo-2H-chromen-3-yl)thiazol-2-yl)acetamide] | 55.14 | 3050 ± 2 | 168.2 ± 0.4 | –
O=C(CN1CCCC1)Nc1nc(-c2cc3ccccc3oc2=O)cs1 [Compound 6g, N-(4-(2-oxo-2H-chromen-3-yl)thiazol-2-yl)-2-(pyrrolidin-1-yl)acetamide] | 67.95 | 1410 ± 1 | 95.81 ± 0.36 | –
O=C(CN1CCCCC1)Nc1nc(-c2cc3ccccc3oc2=O)cs1 [Compound 6h, N-(4-(2-oxo-2H-chromen-3-yl)thiazol-2-yl)-2-(piperidin-1-yl)acetamide] | 31.37 | 730 ± 1 | 22.9 ± 0.12 | –
CN1CCN(CC(=O)Nc2nc(-c3cc4ccccc4oc3=O)cs2)CC1 [Compound 6i, 2-(4-Methylpiperazin-1-yl)-N-(4-(2-oxo-2H-chromen-3-yl)thiazol-2-yl)acetamide] | 12.16 | 610 ± 1 | 7.42 ± 0.23 | –
O=C(CN1CCOCC1)Nc1nc(-c2cc3ccccc3oc2=O)cs1 [Compound 6j, 2-Morpholino-N-(4-(2-oxo-2H-chromen-3-yl)thiazol-2-yl)acetamide] | 48.33 | – | – | IC50 [1, 3]: 3780 ± 3 nM; IC50 [2, 4]: 182.7 ± 0.03 µM
O=C(CNC1Cc2ccccc2C1)Nc1nc(-c2cc3ccccc3oc2=O)cs1 [Compound 6k, 2-((2,3-Dihydro-1H-inden-2-yl)amino)-N-(4-(2-oxo-2H-chromen-3-yl)thiazol-2-yl)acetamide] | 190.54 | 920 ± 1 | 175.3 ± 0.15 | –
O=C(CNCCN1CCCC1)Nc1nc(-c2cc3ccccc3oc2=O)cs1 [Compound 6l, N-(4-(2-oxo-2H-chromen-3-yl)thiazol-2-yl)-2-((2-(pyrrolidin-1-yl)ethyl)amino)acetamide] | 13.82 | 170 ± 1 | 2.35 ± 0.65 | BuChE inhibition relative to donepezil ([2]; ratio of IC50 values): 2 fold; BuChE inhibition relative to galanthamine ([2]; ratio of IC50 values): 7.5 fold
O=C(CNCCN1CCOCC1)Nc1nc(-c2cc3ccccc3oc2=O)cs1 [Compound 6m, 2-((2-Morpholinoethyl)amino)-N-(4-(2-oxo-2H-chromen-3-yl)thiazol-2-yl)acetamide] | 1747.67 | 90 ± 1 | 157 ± 2.27 | –
O=C(CNCCC1=CCCCC1)Nc1nc(-c2cc3ccccc3oc2=O)cs1 [Compound 6n, 2-((2-(Cyclohex-1-en-1-yl)ethyl)amino)-N-(4-(2-oxo-2H-chromen-3-yl)thiazol-2-yl)acetamide] | 18.23 | 10240 ± 1 | 186.7 ± 0.36 | –
COc1ccc(CCNCC(=O)Nc2nc(-c3cc4ccccc4oc3=O)cs2)cc1OC [Compound 6o, 2-((3,4-Dimethoxyphenethyl)amino)-N-(4-(2-oxo-2H-chromen-3-yl)thiazol-2-yl)acetamide] | 14.00 | 13530 ± 1 | 189 | –
O=C(CNCc1ccc2c(c1)OCO2)Nc1nc(-c2cc3ccccc3oc2=O)cs1 [Compound 6p, 2-((Benzo[d][1,3]dioxol-5-ylmethyl)amino)-N-(4-(2-oxo-2H-chromen-3-yl)thiazol-2-yl)acetamide] | 81.55 | 740 ± 1 | 60.35 ± 0.03 | –
O=C(CNN1CCOCC1)Nc1nc(-c2cc3ccccc3oc2=O)cs1 [Compound 6q, 2-(Morpholinoamino)-N-(4-(2-oxo-2H-chromen-3-yl)thiazol-2-yl)acetamide] | 60.42 | 2520 ± 5 | 152.2 ± 0.75 | –
CN1CCN(NCC(=O)Nc2nc(-c3cc4ccccc4oc3=O)cs2)CC1 [Compound 6r, 2-((4-Methylpiperazin-1-yl)amino)-N-(4-(2-oxo-2H-chromen-3-yl)thiazol-2-yl)acetamide] | 7.32 | 1120 ± 3 | 8.2 ± 0.59 | –
N-(4-(2-oxo-2H-chromen-3-yl)thiazol-2-yl)-2-(piperidin-1-ylamino)acetamide [Compound 6s] | 18.54 | – | – | IC50 [1, 3]: 820 ± 2 nM; IC50 [2, 4]: 15.2 ± 0.82 µM

Where two headings read alike, the source gives them in different places.
